The values below come from US11833137B2, “Substituted chromenones, IRE1 inhibitors, and methods of using same” (The Wistar Institute, priority 2018, dated 2023).

For this assay, the system named is XBP-1s expression, 5TGM1 cells. In words: XBP-1s immunoblot in 5TGM1 multiple myeloma cells. Background: A western blot detects proteins with antibodies after separation by electrophoresis.

On to `O=Cc1c(O)ccc2c3c(c(=O)oc12)CNCC3`, for which the “suppression of XBP-1s expression, long term” value (10 μM for a course of 3 days) is “recovered significantly in cells treated for 2 days”. Further, for the setting “summary statement”, the “overall comparison of inhibition of IRE-1 / XBP-1s expression in whole cells” value was “most efficient aldehyde compounds in inhibiting IRE-1 in intact cells”.
